Measured values as given in patent US20260042727A1, “COMPLEX OF 3-HYDROXY-3-METHYLBUTYRIC ACID AND SALT THEREOF, AND PREPARATION METHOD THEREFOR” (NANJING NUTRABUILDING BIO-TECH CO., LTD., priority 2023, published 2026).

Assay: Solubility of 3-hydroxy-3-methylbutyrate salts and complexes
Assay type: physicochemical
Excerpt: The solubility of various 3-hydroxy-3-methylbutyrate salts and the complexes of Examples was each determined.

Substance: calcium 3-hydroxy-3-methylbutyrate
- Solubility: 15 g/100
